Measured values: ChEMBL document CHEMBL1141379, “Selective inhibitory activity against MAO and molecular modeling studies of 2-thiazolylhydrazone derivatives” (J Med Chem, 2007)

Chains of the proteins cited; added tags and fusions are not shown.
UniProt P56560, whole entry: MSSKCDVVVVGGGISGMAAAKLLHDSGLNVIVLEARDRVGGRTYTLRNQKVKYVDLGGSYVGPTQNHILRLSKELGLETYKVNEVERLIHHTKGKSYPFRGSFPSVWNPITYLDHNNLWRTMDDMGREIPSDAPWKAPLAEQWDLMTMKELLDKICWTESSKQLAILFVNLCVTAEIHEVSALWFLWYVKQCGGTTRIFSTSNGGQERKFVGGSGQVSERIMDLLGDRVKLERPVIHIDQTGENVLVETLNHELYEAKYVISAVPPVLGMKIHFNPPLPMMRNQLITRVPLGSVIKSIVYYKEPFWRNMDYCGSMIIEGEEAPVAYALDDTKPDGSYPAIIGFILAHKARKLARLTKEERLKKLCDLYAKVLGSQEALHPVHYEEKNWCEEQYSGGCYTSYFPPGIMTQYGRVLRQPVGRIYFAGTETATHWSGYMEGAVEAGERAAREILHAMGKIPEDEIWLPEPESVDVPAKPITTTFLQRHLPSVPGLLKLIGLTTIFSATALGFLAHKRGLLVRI

Each molecule was assayed against Amine oxidase [flavin-containing] B (Bos taurus, UniProt P56560).
Type: mitochondria, Mitochondria

Structure (SMILES)	Ki [nM]
COc1ccc(/C=N/Nc2nc(-c3ccccc3)cs2)cc1OC	20.4
Clc1ccc(/C=N/Nc2nc(-c3ccccc3)cs2)c(Cl)c1	132
C(=N\Nc1nc(-c2ccccc2)cs1)/c1ccccc1	91.2
Cc1csc(N/N=C/c2ccc(Cl)cc2)n1	9.12
Clc1ccc(/C=N/Nc2nc(-c3ccccc3)cs2)cc1	170

Further lines, results first:

Ki [nM]	Structure (SMILES)
7.08	COc1ccc(/C=N/Nc2nc(C)cs2)cc1OC
1.32	Cc1csc(N/N=C/c2ccccc2)n1
4.07	COc1ccc(/C=N/Nc2nc(C)cs2)cc1
17	Cc1csc(N/N=C/c2ccc(Cl)cc2Cl)n1
132	COc1ccc(/C=N/Nc2nc(-c3ccccc3)cs2)cc1
